Laboratory results reported in patent US12214059B2, “Cleavable radioligands for targeting cell surface receptors and uses thereof” (Full-Life Te[…] Limited, priority 2021, dated 2025).
Read-outs that look alike come from different tables or passages of the source.

Chains of the proteins cited; added tags and fusions are not shown.
UniProt Q04609, whole entry: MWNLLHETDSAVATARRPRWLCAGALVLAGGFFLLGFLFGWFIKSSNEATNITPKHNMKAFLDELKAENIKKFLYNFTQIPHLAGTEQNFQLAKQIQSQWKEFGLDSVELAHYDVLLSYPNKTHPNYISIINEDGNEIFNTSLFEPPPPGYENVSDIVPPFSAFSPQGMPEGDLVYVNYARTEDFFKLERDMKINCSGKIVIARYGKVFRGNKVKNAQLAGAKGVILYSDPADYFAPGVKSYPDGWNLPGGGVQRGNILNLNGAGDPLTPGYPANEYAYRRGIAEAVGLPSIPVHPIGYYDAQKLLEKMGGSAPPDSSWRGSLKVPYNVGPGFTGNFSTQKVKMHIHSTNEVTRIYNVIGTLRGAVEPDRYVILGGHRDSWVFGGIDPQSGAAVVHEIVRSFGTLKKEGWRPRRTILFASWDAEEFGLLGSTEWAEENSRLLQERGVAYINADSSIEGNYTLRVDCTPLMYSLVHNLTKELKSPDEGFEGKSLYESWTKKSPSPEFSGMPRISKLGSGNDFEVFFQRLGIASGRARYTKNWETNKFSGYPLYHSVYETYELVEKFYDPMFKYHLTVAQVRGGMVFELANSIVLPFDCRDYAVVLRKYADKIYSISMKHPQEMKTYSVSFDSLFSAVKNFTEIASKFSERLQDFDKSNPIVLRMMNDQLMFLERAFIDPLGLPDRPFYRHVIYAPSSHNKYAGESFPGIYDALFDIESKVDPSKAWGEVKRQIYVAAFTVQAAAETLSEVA

Assays:
PSMA = biological target: T1, PSMA (Homo sapiens, UniProt Q04609); test: Cell-based radioligand competitive binding assay (^125I-C-8, LNCaP cells); settings: based on the mean value of the IC50 number; C-1 = 1.00
T1 construct: host or cells: LNCaP cells
Protocol: The culture medium was replaced with fresh medium every 2-3 days. Experiments were performed with cells at 70-80% confluence.
The final volume in each well was maintained at 200 μL and insufficient volume was adjusted by the binding buffer.

[1] = Biodistribution study in CB-17 SCID mice bearing LNCap tumor; assay type: in vivo; settings: mouse, iv, total radioactivity
Protocol: Biodistribution Study in CB-17 SCID Mice Bearing LNCap Tumor
All animal care and experimental procedure were performed by following the animal protocols approved by the ethics committee of China Institute of Radiation Protection. The CB-17 SCID mice (Charles River, Beijing) were utilized for these studies. […] These mice received subcutaneous rear flank injections of approximately 4×10^6 LNCap cells suspended in 200 μL of phosphate-buffered saline (PBS) and Matrigel (Corning) (1/1).

O=C(O)CC[C@H](NC(=O)N[C@@H](CCCCNC(=O)[C@H](Cc1ccc2ccccc2c1)NC(=O)[C@H]1CC[C@H](CNC(=O)[C@H](CCCCNC(=O)CN2CCN(CC(=O)O)CCN(CC(=O)O)CCN(CC(=O)O)CC2)NC(=O)CCC(=O)NCCSSCCNC(=O)[C@H](CCC(=O)O)NC(=O)CCCc2ccc(I)cc2)CC1)C(=O)O)C(=O)O [Example I-1, 4pIBA-Glu-SSL1-Lys(DOTA)-Trx-2NaI-eKuE]
Relative Binding Affinity (PSMA): 1.84

O=C(O)CC[C@H](NC(=O)N[C@@H](CCCCNC(=O)[C@H](Cc1ccc2ccccc2c1)NC(=O)[C@H]1CC[C@H](CNC(=O)CCCCCCCCCCNC(=O)[C@H](CCCCNC(=O)CCC(=O)OCCOC(=O)CCC(=O)NCCNC(=O)CN2CCN(CC(=O)O)CCN(CC(=O)O)CCN(CC(=O)O)CC2)NC(=O)[C@H](CCC(=O)O)NC(=O)CCCc2ccc(I)cc2)CC1)C(=O)O)C(=O)O [Example I-5, 4pIBA-Glu-Lys(-ESL2-DOTA)-Aun-Trx-2NaI-eKuE]
Relative Binding Affinity (PSMA): 1.08

O=C(O)CC[C@H](NC(=O)N[C@@H](CCCCNC(=O)[C@H](Cc1ccc2ccccc2c1)NC(=O)[C@H]1CC[C@H](CNC(=O)[C@H](CCCCNC(=O)[C@H](CCC(=O)O)NC(=O)CCCc2ccc(I)cc2)NC(=O)CCC(=O)OCCOC(=O)CCC(=O)NCCNC(=O)CN2CCN(CC(=O)O)CCN(CC(=O)O)CCN(CC(=O)O)CC2)CC1)C(=O)O)C(=O)O [Example I-6, DOTA-ESL2-Lys(-Glu-4pIBA)-Trx-2NaI-eKuE]
Relative Binding Affinity (PSMA): 0.62

CSCC[C@H](NC(=O)CNC(=O)CN1CCN(CC(=O)O)CCN(CC(=O)O)CCN(CC(=O)O)CC1)C(=O)N[C@H](C(=O)N[C@@H](CCCCNC(=O)CCC(=O)NCCCC[C@H](NC(=O)[C@H](CCC(=O)O)NC(=O)CCCc1ccc(I)cc1)C(=O)NC[C@H]1CC[C@H](C(=O)N[C@@H](Cc2ccc3ccccc3c2)C(=O)NCCCC[C@H](NC(=O)N[C@@H](CCC(=O)O)C(=O)O)C(=O)O)CC1)C(=O)O)C(C)C [Example I-9, 4pIBA-Glu-Lys[-Suc-eLys-Val-Met-Gly-DOTA]-Trx-2NaI-eKuE]
Relative Binding Affinity (PSMA): 1.80

O=C(O)CC[C@H](NC(=O)N[C@@H](CCCCNC(=O)[C@H](Cc1ccc2ccccc2c1)NC(=O)[C@H]1CC[C@H](CNC(=O)[C@H](CCCCCC(=O)CN2CCN(CC(=O)O)CCN(CC(=O)O)CCN(CC(=O)O)CC2)NC(=O)CCCOC(=O)CNC(=O)c2cc(C(=O)NCCNC(=O)COCCOCCNC(=O)[C@H](CCC(=O)O)NC(=O)CCCc3ccc(I)cc3)cc(C(=O)NCC(=O)OCCCC(=O)N[C@@H](CCCCNC(=O)CN3CCN(CC(=O)O)CCN(CC(=O)O)CCN(CC(=O)O)CC3)C(=O)NC[C@H]3CC[C@H](C(=O)N[C@@H](Cc4ccc5ccccc5c4)C(=O)NCCCC[C@H](NC(=O)N[C@@H](CCC(=O)O)C(=O)O)C(=O)O)CC3)c2)CC1)C(=O)O)C(=O)O [Example I-33, 4pIBA-Glu-OEG-NH2CH2CH2NH-TMA[-ESL1-Lys(DOTA)-Trx-2NaI-eKuE]2]
Relative Binding Affinity (PSMA): 0.81

O=C(O)CC[C@H](NC(=O)N[C@@H](CCCCNC(=O)[C@H](Cc1ccc2ccccc2c1)NC(=O)[C@H]1CC[C@H](CNC(=O)CN2CCN(CC(=O)O)CCN(CC(=O)O)CCN(CC(=O)O)CC2)CC1)C(=O)O)C(=O)O [^177Lu—C-1, metal not drawn, reference compound]
tissue uptake at 24 h ([1]; Blood, 24 h): 0.01 %ID/g | tissue uptake at 72 h ([1]; Heart, read-out: Biodistribution, Heart): 0.07 %ID/g | tissue uptake at 72 h ([1]; Muscle, read-out: Biodistribution, Muscle): 0.02 %ID/g | tissue uptake at 168 h ([1]; Muscle, 168 h): 0.02 %ID/g
